Results taken from patent US20220117949A1, “LTA4H INHIBITORS FOR THE TREATMENT OF HIDRADENITIS SUPPURATIVA” (NOVARTIS AG, priority 2019, published 2022).

Details: Part 1, 30 mg, 24 hours
Source text: In parts 1 and 2 of the clinical study (SAD and MAD), skin blisters were induced on the arm of subjects in selected cohorts.
Blister fluid samples were collected at Day 1 pre-dose and Day 2 pre-dose in SAD cohort 4 as well as Day 1 pre-dose and Day 9 predose in MAD cohort 2-5.

Which “blister fluid concentration relative to plasma concentration at the same time” value does the source give for N[C@@H](CC(=O)O)Cn1nnc(-c2ccc(Oc3ncc(Cl)cc3F)cc2)n1 [compound of example 1, (S)-3-amino-4-(5-(4-((5-chloro-3-fluoropyridin-2-yl)oxy)phenyl)-2H-tetrazol-2-yl)butanoic acid] here?
Its value is “approximately two-fold”.
